Patent US20060110456A1, “Method for biocidal and/or biostatic treatment and compositions therefor” (NATIONAL UNIVERSITY OF SINGAPORE, priority 2004, published 2006)
Entries after “also recorded” stand apart in the source; their conditions may differ. Read-outs that look alike come from different tables or passages of the source.

Tests used:
Format in all cases: cell-based, marine bacteria isolated from Singapore fouling communities
[1] = test system: marine bacteria (26 strains); assay: Disk inhibition assay
[2] = test system: marine bacteria; assay: Growth assay (absorbance, 96-well plates); conditions: 25 μg ml−1; strain named in the value; hydrochloride
[3] = test system: marine bacteria (ten strains); assay: Bacteriostatic vs bacteriocidal activity from growth assay: absorbance and CFU counts; conditions: 50 μg ml^−1

CN[C@H]1CC[C@@H](c2ccc(Cl)c(Cl)c2)c2ccccc21.Cl [ZLT, sertraline hydrochloride]
Activity against the three Vibrio strains tested [1]: exhibited activity against the three Vibrio strains tested | Antibiotic activity against marine bacteria [1]: strongest activity | Antibiotic activity against marine bacteria ([1]; crude rank, best (1) to worst (8)): 1 | Growth response (absorbance over time) [2]: Strain 16 showed delayed growth after 20 hours; also recorded: Recovery of growth by strain 16; also recorded: Little or no growth response by bacteria strain 28 | Growth assay: 24-hour change in absorbance for ten strains ([3]; strains 1, 4, 9, 14, 18, 20, 27, 28, 29, 30): only strain number 14 grew in the presence of ZLT | Result (bacteriostatic / bacteriocidal / no effect) ([3]; strain 1 (Rhodovulum)): bacteriostatic | Result (bacteriostatic / bacteriocidal / no effect) ([3]; strain 4 (Bacillus)): bacteriocidal | Result (bacteriostatic / bacteriocidal / no effect) ([3]; strain 9 (Bacillus)): bacteriocidal | Result (bacteriostatic / bacteriocidal / no effect) ([3]; strain 14 (Vibrio)): no effect | Result (bacteriostatic / bacteriocidal / no effect) ([3]; strain 18 (Microbacterium)): bacteriostatic | Result (bacteriostatic / bacteriocidal / no effect) ([3]; strain 20): bacteriocidal | Result (bacteriostatic / bacteriocidal / no effect) ([3]; strain 27): bacteriocidal | Result (bacteriostatic / bacteriocidal / no effect) ([3]; strain 28): bacteriostatic | Result (bacteriostatic / bacteriocidal / no effect) ([3]; strain 29): bacteriocidal | Result (bacteriostatic / bacteriocidal / no effect) ([3]; strain 30): bacteriostatic
